For experiment [1], the target named is elastase in COPD patient sputum (Homo sapiens (Human), UniProt P08246). The experiment in a line: Elastase inhibition assay in COPD patient sputum. The experiment is classed as biochemical.
The target in experiment [2] is elastase in CF patient sputum (Homo sapiens (Human), UniProt P08246). The experiment in a line: Elastase inhibition assay in CF patient sputum. The experiment is classed as biochemical.
Another experiment deals with HNE (Homo sapiens (Human), UniProt P08246). The settings on record: literature value; read-out: reported Ki; cited from earlier work.

Chains of the proteins cited; added tags and fusions are not shown. Residues count along the entry.
UniProt P08246, 30-267: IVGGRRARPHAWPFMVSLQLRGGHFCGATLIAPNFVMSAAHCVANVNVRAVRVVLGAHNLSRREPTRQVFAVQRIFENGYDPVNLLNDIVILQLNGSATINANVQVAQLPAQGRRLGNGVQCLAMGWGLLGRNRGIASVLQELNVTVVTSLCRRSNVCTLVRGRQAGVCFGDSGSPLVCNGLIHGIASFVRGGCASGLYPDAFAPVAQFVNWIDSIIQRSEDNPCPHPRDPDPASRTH

Take `CC1=C(C#N)[C@@H](c2ccc(C#N)cc2S(C)(=O)=O)N(C)C(=O)N1c1cccc(C(F)(F)F)c1` [Compound 54, BAY 85-8501]: the concentration for half-maximal inhibition (IC50) – broadly, the concentration that inhibits the measured activity by half – amounted to 0.024 ± 0.003 nM in experiment [1] and 0.4 ± 0.04 nM in experiment [2]. Moreover, the Ki (usually the dissociation constant of the complex between target and ligand, obtained from inhibition or displacement) on HNE is 0.08 nM.

(Values after patent US12415819B2, “Cu- and Ni-catalyzed decarboxylative borylation reactions” (The Scripps Research Institute, priority 2017, dated 2025).)
